Literature values, collected in publication PMC8307404, “Crystal Structure-Guided Design of Bisubstrate Inhibitors and Photoluminescent Probes for Protein Kinases of the PIM Family” (Molecules, 2021).

Molecular target: PIM-1
Conditions: read-out: KD (PIM-1); cited from earlier work

ARKRRRHPSGPPTA [Pimtide]
Kd: 58 nM
